Experimental data reported in article PMC11207571, “Applicability of MDR1 Overexpressing Abcb1KO-MDCKII Cell Lines for Investigating In Vitro Species Differences and Brain Penetration Prediction” (Pharmaceutics, 2024).

The chains behind the UniProt entries cited, without tags or fusion partners. Where a name states a change or a piece, a line headed by the entry shows the natural chain unless it says otherwise. Residues count along the entry.
UniProt P21447, whole entry: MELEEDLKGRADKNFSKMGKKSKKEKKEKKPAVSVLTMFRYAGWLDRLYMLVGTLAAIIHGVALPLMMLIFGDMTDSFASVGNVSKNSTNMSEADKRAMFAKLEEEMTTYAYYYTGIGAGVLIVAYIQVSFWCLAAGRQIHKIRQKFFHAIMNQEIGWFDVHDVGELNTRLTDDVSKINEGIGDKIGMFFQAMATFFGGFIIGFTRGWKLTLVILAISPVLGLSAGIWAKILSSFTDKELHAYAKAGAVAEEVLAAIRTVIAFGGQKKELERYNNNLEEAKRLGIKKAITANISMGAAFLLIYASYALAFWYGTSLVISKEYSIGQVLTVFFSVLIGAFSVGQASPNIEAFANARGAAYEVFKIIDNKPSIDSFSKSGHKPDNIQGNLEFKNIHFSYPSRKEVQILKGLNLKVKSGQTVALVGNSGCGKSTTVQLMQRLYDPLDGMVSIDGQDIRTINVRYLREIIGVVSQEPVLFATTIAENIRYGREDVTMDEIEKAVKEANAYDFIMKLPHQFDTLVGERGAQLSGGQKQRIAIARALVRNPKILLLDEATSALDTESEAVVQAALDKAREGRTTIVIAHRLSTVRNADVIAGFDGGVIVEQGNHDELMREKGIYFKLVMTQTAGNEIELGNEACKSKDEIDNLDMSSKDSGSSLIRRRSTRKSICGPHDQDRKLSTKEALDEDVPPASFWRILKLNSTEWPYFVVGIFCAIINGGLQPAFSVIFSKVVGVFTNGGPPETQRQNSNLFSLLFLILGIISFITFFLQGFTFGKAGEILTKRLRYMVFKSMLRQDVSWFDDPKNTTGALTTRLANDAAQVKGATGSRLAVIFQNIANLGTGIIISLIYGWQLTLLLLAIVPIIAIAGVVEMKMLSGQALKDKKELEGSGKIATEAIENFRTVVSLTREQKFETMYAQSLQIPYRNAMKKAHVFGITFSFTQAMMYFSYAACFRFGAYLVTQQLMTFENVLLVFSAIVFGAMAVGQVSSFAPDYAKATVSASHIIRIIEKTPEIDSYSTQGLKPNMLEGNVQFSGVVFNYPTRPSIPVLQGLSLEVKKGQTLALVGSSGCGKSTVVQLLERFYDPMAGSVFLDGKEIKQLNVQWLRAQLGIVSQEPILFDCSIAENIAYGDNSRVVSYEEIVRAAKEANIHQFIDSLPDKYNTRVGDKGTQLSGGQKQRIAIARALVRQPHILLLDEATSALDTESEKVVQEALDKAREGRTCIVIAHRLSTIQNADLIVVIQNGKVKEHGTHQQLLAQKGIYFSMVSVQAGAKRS
UniProt Q6PSM0, 1-1272: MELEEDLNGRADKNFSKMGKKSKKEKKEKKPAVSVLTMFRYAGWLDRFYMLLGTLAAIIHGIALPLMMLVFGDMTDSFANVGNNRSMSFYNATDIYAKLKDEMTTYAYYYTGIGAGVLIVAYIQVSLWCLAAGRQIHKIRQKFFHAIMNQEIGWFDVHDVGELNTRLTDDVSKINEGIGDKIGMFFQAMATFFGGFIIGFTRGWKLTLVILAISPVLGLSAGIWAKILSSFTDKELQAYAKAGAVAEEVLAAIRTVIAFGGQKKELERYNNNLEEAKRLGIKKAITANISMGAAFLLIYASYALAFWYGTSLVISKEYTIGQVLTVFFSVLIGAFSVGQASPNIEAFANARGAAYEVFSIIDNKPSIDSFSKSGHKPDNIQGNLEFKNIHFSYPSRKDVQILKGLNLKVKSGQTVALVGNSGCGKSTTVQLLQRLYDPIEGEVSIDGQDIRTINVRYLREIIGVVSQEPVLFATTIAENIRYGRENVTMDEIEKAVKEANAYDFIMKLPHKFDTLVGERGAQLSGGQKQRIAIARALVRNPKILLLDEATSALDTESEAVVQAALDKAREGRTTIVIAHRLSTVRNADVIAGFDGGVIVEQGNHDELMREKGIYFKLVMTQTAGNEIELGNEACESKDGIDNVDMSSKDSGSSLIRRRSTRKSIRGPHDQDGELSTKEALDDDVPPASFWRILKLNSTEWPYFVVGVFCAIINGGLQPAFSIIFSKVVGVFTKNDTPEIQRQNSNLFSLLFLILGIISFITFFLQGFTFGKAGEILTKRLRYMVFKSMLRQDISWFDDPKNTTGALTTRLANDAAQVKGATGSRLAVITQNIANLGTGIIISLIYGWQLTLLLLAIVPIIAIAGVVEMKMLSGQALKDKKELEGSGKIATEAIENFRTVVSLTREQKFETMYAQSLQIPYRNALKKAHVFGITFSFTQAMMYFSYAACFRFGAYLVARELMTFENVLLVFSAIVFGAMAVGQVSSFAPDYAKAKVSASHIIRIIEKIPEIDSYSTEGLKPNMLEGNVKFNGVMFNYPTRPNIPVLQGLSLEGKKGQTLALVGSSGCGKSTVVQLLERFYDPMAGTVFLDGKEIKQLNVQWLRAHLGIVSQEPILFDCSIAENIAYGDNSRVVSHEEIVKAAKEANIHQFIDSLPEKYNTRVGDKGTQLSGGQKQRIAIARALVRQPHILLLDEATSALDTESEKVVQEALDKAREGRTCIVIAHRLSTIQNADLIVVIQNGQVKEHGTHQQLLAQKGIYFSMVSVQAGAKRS
UniProt Q8HZQ6, 1-1283: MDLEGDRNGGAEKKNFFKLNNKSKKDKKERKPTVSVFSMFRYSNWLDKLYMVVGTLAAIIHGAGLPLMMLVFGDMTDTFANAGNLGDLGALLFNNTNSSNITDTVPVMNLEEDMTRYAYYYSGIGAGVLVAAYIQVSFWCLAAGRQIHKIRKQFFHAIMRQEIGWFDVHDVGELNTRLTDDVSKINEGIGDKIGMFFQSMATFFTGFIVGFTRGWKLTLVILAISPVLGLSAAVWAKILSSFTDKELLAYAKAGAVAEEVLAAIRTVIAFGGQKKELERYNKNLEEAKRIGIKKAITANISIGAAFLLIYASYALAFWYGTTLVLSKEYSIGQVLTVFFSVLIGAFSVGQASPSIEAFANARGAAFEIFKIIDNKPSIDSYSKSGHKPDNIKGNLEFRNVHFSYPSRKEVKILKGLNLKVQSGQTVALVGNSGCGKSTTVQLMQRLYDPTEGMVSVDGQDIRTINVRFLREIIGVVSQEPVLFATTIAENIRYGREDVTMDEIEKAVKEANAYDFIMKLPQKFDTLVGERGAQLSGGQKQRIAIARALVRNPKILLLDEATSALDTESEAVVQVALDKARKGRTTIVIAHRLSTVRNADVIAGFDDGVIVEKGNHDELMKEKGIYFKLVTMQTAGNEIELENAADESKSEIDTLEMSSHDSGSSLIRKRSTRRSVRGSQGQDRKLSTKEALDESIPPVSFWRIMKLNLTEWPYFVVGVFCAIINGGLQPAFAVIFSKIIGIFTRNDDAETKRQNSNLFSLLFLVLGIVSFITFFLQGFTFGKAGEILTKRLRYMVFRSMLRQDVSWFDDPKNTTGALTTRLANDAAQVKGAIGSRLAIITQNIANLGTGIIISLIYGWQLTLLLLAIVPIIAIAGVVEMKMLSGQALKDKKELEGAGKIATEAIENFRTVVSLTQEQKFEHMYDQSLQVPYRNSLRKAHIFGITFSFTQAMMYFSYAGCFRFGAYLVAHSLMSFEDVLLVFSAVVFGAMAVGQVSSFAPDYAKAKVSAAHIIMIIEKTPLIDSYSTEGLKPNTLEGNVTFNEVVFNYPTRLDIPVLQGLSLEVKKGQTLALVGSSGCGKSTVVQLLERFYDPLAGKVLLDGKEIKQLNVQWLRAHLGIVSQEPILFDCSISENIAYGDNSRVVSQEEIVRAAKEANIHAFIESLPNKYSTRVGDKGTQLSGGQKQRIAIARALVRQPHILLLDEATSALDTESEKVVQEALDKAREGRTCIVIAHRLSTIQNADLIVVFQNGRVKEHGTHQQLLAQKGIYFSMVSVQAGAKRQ
UniProt Q9UNQ0: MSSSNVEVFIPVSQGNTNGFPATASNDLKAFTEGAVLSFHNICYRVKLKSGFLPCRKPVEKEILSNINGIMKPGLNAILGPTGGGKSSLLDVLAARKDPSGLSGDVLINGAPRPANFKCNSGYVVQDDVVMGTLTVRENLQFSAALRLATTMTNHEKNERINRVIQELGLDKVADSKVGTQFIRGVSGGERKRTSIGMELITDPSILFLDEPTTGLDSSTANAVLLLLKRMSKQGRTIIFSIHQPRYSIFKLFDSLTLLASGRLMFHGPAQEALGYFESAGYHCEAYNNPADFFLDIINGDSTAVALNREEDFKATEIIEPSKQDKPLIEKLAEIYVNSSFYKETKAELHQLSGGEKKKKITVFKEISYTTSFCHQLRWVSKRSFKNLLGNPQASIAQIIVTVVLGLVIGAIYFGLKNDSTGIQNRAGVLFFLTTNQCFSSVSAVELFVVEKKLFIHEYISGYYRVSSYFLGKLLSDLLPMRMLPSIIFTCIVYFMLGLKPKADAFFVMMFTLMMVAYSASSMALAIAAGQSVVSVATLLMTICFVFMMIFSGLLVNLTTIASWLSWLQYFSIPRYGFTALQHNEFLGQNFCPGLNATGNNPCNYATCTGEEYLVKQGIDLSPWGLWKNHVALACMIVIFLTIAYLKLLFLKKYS
UniProt P08183, whole entry: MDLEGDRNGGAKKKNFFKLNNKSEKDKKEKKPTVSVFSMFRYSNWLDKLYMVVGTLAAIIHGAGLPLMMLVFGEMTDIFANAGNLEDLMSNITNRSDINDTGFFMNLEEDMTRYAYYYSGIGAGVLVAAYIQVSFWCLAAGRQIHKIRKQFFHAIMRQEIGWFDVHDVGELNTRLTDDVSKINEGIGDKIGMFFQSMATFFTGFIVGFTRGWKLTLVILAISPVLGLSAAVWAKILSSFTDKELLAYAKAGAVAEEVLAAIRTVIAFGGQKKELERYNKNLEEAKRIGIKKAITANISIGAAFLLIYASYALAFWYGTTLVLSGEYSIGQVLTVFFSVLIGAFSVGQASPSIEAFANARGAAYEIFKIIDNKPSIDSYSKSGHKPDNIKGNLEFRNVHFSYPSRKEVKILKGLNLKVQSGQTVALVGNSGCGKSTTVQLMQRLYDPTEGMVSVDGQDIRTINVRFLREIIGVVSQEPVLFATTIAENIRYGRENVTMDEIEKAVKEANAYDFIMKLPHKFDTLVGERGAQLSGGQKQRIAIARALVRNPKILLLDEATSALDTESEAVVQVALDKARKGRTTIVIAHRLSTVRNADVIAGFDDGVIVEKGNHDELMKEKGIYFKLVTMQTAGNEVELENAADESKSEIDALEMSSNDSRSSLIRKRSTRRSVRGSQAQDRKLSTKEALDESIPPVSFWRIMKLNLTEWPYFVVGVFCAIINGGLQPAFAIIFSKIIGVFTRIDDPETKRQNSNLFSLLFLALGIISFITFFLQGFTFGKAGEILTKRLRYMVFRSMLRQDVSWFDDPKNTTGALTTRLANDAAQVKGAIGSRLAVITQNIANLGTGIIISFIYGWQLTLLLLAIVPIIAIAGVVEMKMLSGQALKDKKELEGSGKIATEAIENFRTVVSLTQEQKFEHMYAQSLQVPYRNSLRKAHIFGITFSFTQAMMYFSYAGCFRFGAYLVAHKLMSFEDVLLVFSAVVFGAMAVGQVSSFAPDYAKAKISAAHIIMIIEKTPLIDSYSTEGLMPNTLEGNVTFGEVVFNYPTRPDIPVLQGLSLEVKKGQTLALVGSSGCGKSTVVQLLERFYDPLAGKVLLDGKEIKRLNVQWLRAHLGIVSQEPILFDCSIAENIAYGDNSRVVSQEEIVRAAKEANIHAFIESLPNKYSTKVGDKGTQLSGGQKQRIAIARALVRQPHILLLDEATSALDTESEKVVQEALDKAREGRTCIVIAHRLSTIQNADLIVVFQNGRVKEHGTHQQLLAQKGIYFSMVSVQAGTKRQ

What was measured:
mouse Mdr1a = mouse Mdr1a (Mus musculus, UniProt P21447); conditions: pH 7.4
rat Mdr1a = rat Mdr1a (Rattus norvegicus, UniProt Q6PSM0); test: Bidirectional transport assay, efflux ratio in Abcb1KO-MDCKII rMDR1 cells; conditions: pH 7.4
[1] = Bidirectional transport assay, efflux ratio in Abcb1KO-MDCKII-Mock control cells; conditions: dog, MDCK, pH 7.4
cynomolgus monkey Mdr1 = cynomolgus monkey Mdr1 (Macaca fascicularis, UniProt Q8HZQ6); test: Bidirectional transport assay, efflux ratio in Abcb1KO-MDCKII cyMDR1 cells; conditions: pH 7.4
human BCRP [2] = target: T1, human BCRP (Homo sapiens, UniProt Q9UNQ0); test: in vitro; conditions: pH 7.4
human MDR1 = human MDR1 (Homo sapiens, UniProt P08183); test: Bidirectional transport assay, efflux ratio in Abcb1KO-MDCKII hMDR1 cells; conditions: MDCK-MDR1, pH 7.4
human BCRP [3] = target: T1, human BCRP; test: Bidirectional transport assay, efflux ratio in MDCKII-BCRP cells; conditions: pH 7.4

efflux ratio at 120 min, 1 µM (cynomolgus monkey Mdr1)	efflux ratio at 120 min, 1 µM (human BCRP [2])	Compound	efflux ratio at 120 min, 1 µM (mouse Mdr1a)	efflux ratio at 120 min, 1 µM (rat Mdr1a)	efflux ratio at 120 min, 1 µM [1]	efflux ratio at 120 min, 1 µM (human MDR1)	efflux ratio at 120 min, 1 µM (human BCRP [3])
24.9 ± 1.15	4.16 ± 0.37	CC(C)CN(C[C@@H](O)[C@H](Cc1ccccc1)NC(=O)O[C@H]1CCOC1)S(=O)(=O)c1ccc(N)cc1 [Amprenavir]	31.9 ± 0.96	36.1 ± 2.46	0.63 ± 0.03	–	–
–	–	Cc1nc2n(c(=O)c1CCN1CCC(c3noc4cc(F)ccc34)CC1)CCCC2 [Risperidone]	2.2 ± 0.31	2.38 ± 1	0.52 ± 0.04	3.4 ± 0.52	0.94 ± 0.13
